Reference: patent US6630501B1, “Phosphinic pseudo-peptides that may be used as matrix zinc metalloprotease inhibitors” (Commissariat a l'energie Atomique, priority 1999, dated 2003)
One block for each compound: values may come before it.

The chains behind the UniProt entries cited, without tags or fusion partners. Residues count along the entry.
UniProt P09237, 95-267 limits assumed: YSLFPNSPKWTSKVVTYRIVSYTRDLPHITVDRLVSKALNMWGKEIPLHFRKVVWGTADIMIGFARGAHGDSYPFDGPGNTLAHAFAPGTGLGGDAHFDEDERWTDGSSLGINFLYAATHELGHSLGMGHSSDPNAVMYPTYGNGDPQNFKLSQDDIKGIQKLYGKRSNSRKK
UniProt P03956, 100-469 limits assumed: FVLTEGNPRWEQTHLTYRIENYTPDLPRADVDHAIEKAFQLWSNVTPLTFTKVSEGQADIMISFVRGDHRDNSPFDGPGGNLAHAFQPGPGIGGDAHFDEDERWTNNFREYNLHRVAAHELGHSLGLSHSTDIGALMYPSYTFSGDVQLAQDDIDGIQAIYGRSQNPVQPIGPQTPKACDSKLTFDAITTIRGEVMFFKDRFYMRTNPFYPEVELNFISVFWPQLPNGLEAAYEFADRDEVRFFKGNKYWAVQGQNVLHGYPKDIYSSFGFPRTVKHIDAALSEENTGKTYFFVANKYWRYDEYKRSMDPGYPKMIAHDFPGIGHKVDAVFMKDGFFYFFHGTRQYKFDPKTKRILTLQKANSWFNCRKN

Tests used:
[1] = target: MMP-7 (Matrilysin) (Homo sapiens, UniProt P09237); assay: Ki determination with fluorogenic synthetic substrates, recombinant MMP-7
Procedure: (§1) In this example, the affinity constant Ki of the pseudo-peptides in tables 5 to 8 are examined with respect to the different matrix metalloproteases MMP.
(§2) The MMPs used were produced in recombinant form, in an E. coli expression system, and then purified using different types of chromatographies. Apart from stromelysin-3 (MMP-11), the MMPs produces correspond to human sequences. The Stromelysin-3 used in this study corresponds to the murine form.
(§3) The activity of each MMP was determined using two fluorogenic synthetic substrates. The cutoff of said substrates, which generates a fluorescent signal proportional to the quantity of split substrate, enables a precise determination of the kinetic parameters. The affinity constants Ki were calculated using the equation of Horowitz et al, Proc. Natl. Acad. Sci. USA, 1987, 84, p. 6654-6658 [14], accounting for the dependency of the percentage of inhibition measured experimentally according to the concentration of inhibitor, as a function of the enzyme and substrate concentration.
(§4) The experiments for conducted in a Tris/50 mM HCl buffer, pH 6.8, 10 mM CaCl2, 25° C.

[2] = target: MMP-1 (HFC) (Homo sapiens, UniProt P03956); assay: Ki determination with fluorogenic synthetic substrates, recombinant MMP-1
Procedure: as §1, §2, §3, §4

percentage of inhibition, MMP-7 ([1]; @ 50 mM inhibitor): 50% @ 50 mM
SMILES: CCCCCCCC(CP(=O)(O)C(Cc1ccccc1)NC(=O)OCc1ccccc1)C(=O)N[C@@H](Cc1c[nH]c2ccccc12)C(N)=O (stereo partly shown)

percentage of inhibition, MMP-1 ([2]; @ 5 mM inhibitor): 0% @ 5 mM
SMILES: NC(=O)[C@H](Cc1c[nH]c2ccccc12)NC(=O)C(Cc1ccc2ccccc2c1)CP(=O)(O)C(Cc1ccccc1)NC(=O)OCc1ccccc1 (stereo partly shown)

SMILES: NC(=O)[C@H](Cc1c[nH]c2ccccc12)NC(=O)C(CCc1ccc2ccccc2c1)CP(=O)(O)C(Cc1ccccc1)NC(=O)OCc1ccccc1 (stereo partly shown)
percentage of inhibition, MMP-1 ([2]; @ 2 mM inhibitor): 0% @ 2 mM
Ki ([1]; read-out: affinity constant Ki, MMP-7 Matrilysin, Tris/50 mM HCl buffer, pH 6.8, 10 mM CaCl2, 25° C.): 210 nM
